Drawing on ChEMBL document CHEMBL1130475 (Bioorg Med Chem Lett, 1997), this text covers Ki for 1 compound.

Protein sequences, listed by entry. Tags and fused reporters are not part of them.
UniProt Q8QGU2, whole entry: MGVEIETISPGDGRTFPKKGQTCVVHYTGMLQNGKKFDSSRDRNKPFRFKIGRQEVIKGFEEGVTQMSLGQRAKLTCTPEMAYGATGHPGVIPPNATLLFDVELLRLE

For the test, the target named is FK506 binding protein 12 (Gallus gallus, UniProt Q8QGU2). In words: Inhibition of binding to FKBP12 receptor.

As usually defined, the Ki is a dissociation constant, usually derived from enzyme kinetics or from competition with a known ligand. High values mean a looser hold on the target, low ones a stronger hold on the target. For the compound `CCC(C)(C)C(=O)C(=O)N1CCCCC1C(=O)OC(CCc1ccccc1)CCc1ccccc1` (stereo unspecified), the Ki worked out at 20 nM.
